Measurements as given in ChEMBL document CHEMBL3639331, “Buprenorphine analogs” (2015).

Target: Kappa-type opioid receptor (Homo sapiens, UniProt P41145)
Assay: Binding Assay: Kippa-Opioid Receptor Binding Assay Procedures: Membranes from recombinant HEK-293 cells expressing the human kippa opioid receptor (kippa) (cloned in house) were prepared by lysing cells in ice cold hypotonic buffer (2.5 mM MgCl2, 50 mM HEPES, pH 7.4) (10 mL/10 cm dish) followed by homogenization with a tissue grinder/Teflon pestle. Membranes were collected by centrifugation at 30,
Details: sf9

**Q.** For CO[C@]12CC[C@@]3(C[C@@H]1CNC(=O)CNC(C)=O)[C@H]1Cc4ccc(O)c5c4[C@@]3(CCN1CC1CC1)[C@H]2O5, which Ki is on record?
**A.** Its Ki is 0.22 nM.

**Q.** How did the Ki turn out when COC12CC[C@@]3(C[C@@H]1CNC(=O)c1nccnc1C(=O)O)[C@H]1Cc4ccc(O)c5c4[C@@]3(CCN1CC1CC1)[C@H]2O5 was run?
**A.** The Ki was 15.3 nM.

**Q.** CC[C@H](C)[C@H](N)C(=O)NC[C@H]1C[C@@]23CC[C@]1(OC)[C@@H]1Oc4c(O)ccc5c4[C@@]12CCN(CC1CC1)[C@@H]3C5 was tested. Which Ki did it give?
**A.** Its Ki is 0.09 nM.

**Q.** COC12CC[C@@]3(C[C@@H]1CNC(=O)CCCCC(=O)O)[C@H]1Cc4ccc(O)c5c4[C@@]3(CCN1CC1CC1)[C@H]2O5 was tested. Which Ki did it give?
**A.** Its Ki is 13.5 nM.

**Q.** Which Ki does the source give for CO[C@]12CC[C@@]3(C[C@@H]1CNC(=O)[C@H](Cc1ccc(O)cc1)NC(C)=O)[C@H]1Cc4ccc(O)c5c4[C@@]3(CCN1CC1CC1)[C@H]2O5 here?
**A.** Its Ki is 0.13 nM.

**Q.** For CO[C@]12CC[C@@]3(C[C@@H]1CNC(=O)[C@@H](N)CO)[C@H]1Cc4ccc(O)c5c4[C@@]3(CCN1CC1CC1)[C@H]2O5, which Ki is on record?
**A.** Its Ki is 0.18 nM.

**Q.** For CO[C@]12CC[C@@]3(C[C@@H]1CNC(=O)[C@@H](N)CC(N)=O)[C@H]1Cc4ccc(O)c5c4[C@@]3(CCN1CC1CC1)[C@H]2O5, which Ki is on record?
**A.** The Ki was 0.09 nM.

**Q.** For COC12CC[C@@]3(C[C@@H]1CNC(=O)c1nccnc1C(N)=O)[C@H]1Cc4ccc(O)c5c4[C@@]3(CCN1CC1CC1)[C@H]2O5, which Ki is on record?
**A.** Its Ki is 0.48 nM.

**Q.** How did the Ki turn out when COc1ccc2c3c1O[C@H]1[C@@]4(OC)CC[C@@]5(C[C@@H]4CNC(=O)[C@H](C)N)[C@@H](C2)N(CC2CC2)CC[C@]315 was run?
**A.** Its Ki is 13.8 nM.

**Q.** With COC12CC[C@@]3(C[C@@H]1CNC(=O)CCC(N)=O)[C@H]1Cc4ccc(O)c5c4[C@@]3(CCN1CC1CC1)[C@H]2O5 as the molecule, how does the Ki read?
**A.** The Ki was 0.17 nM.
